Measurements published in article PMC6009921, “Carbon- versus sulphur-based zinc binding groups for carbonic anhydrase inhibitors?” (Journal of Enzyme Inhibition and Medicinal Chemistry, 2018).

Sequences of proteins named here, by UniProt entry; tags and fusion partners are left off. Residues count along the entry.
UniProt O43570, 30-289 limits assumed: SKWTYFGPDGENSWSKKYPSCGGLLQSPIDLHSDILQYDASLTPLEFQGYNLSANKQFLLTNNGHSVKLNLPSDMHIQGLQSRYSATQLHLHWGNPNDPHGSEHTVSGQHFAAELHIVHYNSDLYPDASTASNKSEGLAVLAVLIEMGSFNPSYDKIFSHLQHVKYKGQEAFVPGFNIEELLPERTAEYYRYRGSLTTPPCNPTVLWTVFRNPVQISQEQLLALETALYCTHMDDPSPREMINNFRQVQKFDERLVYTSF

Target: T1, hCA XII (Homo sapiens, UniProt O43570)
T1 construct: gene CA12; recombinant, obtained in-house
Assay: stopped-flow CO2 hydration
Type: biochemical
Details: CO2 1.7-17 mM, 20 mM Hepes pH 7.5, 20 mM Na2SO4, 15 min preincubation, room temperature; read-out: KI (μM)^a^,^b / hCA XII^c

- Ki: 9.51 µM
Structure (SMILES): O=C(NO)c1ccccc1 [compound 9, hydroxamic acid 9]
